Values quoted from earlier work in patent US20100069382A1, “Agent for prophylaxis or treatment of alcohol dependence or drug dependence” (priority 2006, published 2010).

Protein sequences, listed by entry. Tags and fused reporters are not part of them. Lines headed by an entry give the natural chain unless they say otherwise; changes in a name come on top.
UniProt P41146: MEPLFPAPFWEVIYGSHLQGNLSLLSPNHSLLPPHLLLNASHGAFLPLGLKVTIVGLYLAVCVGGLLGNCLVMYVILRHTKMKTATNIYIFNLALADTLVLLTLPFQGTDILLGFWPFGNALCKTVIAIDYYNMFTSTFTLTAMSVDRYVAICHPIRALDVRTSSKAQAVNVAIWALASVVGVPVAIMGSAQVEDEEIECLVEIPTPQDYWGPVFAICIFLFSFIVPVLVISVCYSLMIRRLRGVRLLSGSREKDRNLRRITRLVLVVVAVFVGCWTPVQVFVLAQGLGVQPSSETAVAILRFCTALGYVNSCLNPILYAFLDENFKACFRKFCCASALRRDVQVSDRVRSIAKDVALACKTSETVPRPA

Molecular target: ORL-1 receptor (Homo sapiens, UniProt P41146)
Details: WO03/082333; cited from earlier work

CNC(=O)Cn1c(=O)n(C2CCN([C@@H]3Cc4cccc5cccc3c45)CC2)c2ccccc21 [Compound A, (R)-2-{3-[1-(acenaphthen-1-yl)piperidin-4-yl]-2,3-dihydro-2-oxo-benzimidazol-1-yl}-N-methylacetamide]
affinity for ORL-1 receptors (selectivity): highly selective affinity
